The values that follow are results of earlier work, collected in patent US20020198215A1, “Terazosin transdermal device and methods” (priority 2000, published 2002).

For this data set the following is noted: cited from earlier work.

`COc1cc2nc(N3CCN(C(=O)C4CCCO4)CC3)nc(N)c2cc1OC` (stereo not drawn) [terazosin, Terazosin]: for the setting “in vivo”, the “excretion in the feces (unchanged drug and metabolites)” value is 60%; the “excretion in the urine (unchanged drug and metabolites)” value is 40%. Further, the “absorption following oral administration” value (oral administration) is “almost completely absorbed”.
